# Binding of CDR-mutated scFvs to a peptide of the spike HR2 region

Binding partner: SARS-CoV-2 spike HR2 peptide, sequence PDVDLGDISGINAS.

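Phage display of a naive human antibody library on the peptide gave the parent. The variants were designed computationally from a first round of random CDR variants and then made and measured. Their group label is 14H_En_Gibbs (En: ensemble of fine-tuned language models; Gibbs: Gibbs sampling). The scFvs were displayed on barcoded MATa yeast, the peptide on MATalpha yeast. Mating (16 h, 30 °C) was followed by selection of diploids and sequencing of their barcodes. Each replicate has its own calibration line, from reference interactions of the BCL2 family. Mating was done six times.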

Parent scFv Ab-14: VH joined to VL by a 15-residue (Gly4Ser)3 linker. Changes lie in the heavy chain CDRs alone.
VH: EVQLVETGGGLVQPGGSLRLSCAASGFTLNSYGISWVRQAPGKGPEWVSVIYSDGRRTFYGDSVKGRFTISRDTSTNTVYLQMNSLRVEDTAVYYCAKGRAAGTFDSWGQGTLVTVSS
VL: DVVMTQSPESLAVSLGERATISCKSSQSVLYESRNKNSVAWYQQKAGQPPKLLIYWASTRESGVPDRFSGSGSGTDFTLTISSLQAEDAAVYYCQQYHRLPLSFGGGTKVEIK

The parent's heavy chain CDRs are GFTLNSYGIS, VIYSDGRRTFYGDSVK, GRAAGTFDS; each variant's own CDRs replace them letter for letter.
Numbers give log10(Kd / nM), so 0 is 1 nM and 3 is 1 µM. Smaller is tighter.
A pair that was not seen in that replicate is written "nd"; this usually means weak binding, but a binder can also be missed.
The authors' rule: three or more of the six replicates give a measured affinity, fewer mean a poor binder.
As a blank, each scFv also met three strains without target: over all heavy chain designs, 1% of these pairings were detected, typically at 2.08 and seldom below 0.84. Also given: how often the same scFv was detected with the empty control strains, with their mean in brackets.
The range of this assay differs from that of the first round, and the authors advise against merging the two.
The parent sequence was in this pool as ten entries: three were never detected, three once, and four in most replicates, with averages from 0.34 to 2.37.

CDR-H1 | CDR-H2 | CDR-H3 | log10 Kd, replicates | control signals
GKKLDEYGIS | VIYADGKRNFYSNSVK | GQLAGGLFV | nd nd nd nd nd nd | 0/18
GFTIGEYGIS | VIYADGERTAYSNAVK | GNMAGTFLF | -0.58 -0.40 -0.78 -0.11 -0.58 -0.27 | 0/18
GFDLNEYGIS | VIYADGLRTQYAESFK | GDLAGYFDS | nd nd nd nd nd nd | 0/18
GFNLGEYGIS | VIYADGRRTFYINSVK | GEFIVMNVI | nd nd nd nd nd nd | 0/18
GFQLDEYGIS | VIYADGVRSSYVDDVK | GEGTGAFSV | nd 1.00 nd nd nd nd | 0/18
GKSLDEYGIS | VIYADGMRTFYANTVK | GEDGGFLNQ | nd nd nd nd nd nd | 0/18
GYNIDEYGIS | VIYADGQRTAYQNSVK | GEQAGIDMY | nd nd nd nd nd nd | 0/18
GFDLDEYGIS | VIYADGHRKSYAADVK | GSVEGVDMV | nd nd nd nd nd nd | 0/18
GFDINEYGIS | VIYADGVRTHYVQDVK | GKHTGMKMA | nd nd nd nd nd nd | 0/18
GFNLSEYGIS | VIYADGNRTYYAPNVK | GQFNDVLNM | nd nd nd nd 1.85 nd | 0/18
GFNIDEFGIS | VIYADGKRTSYSDSVK | GQLGNAFDL | nd nd nd nd nd nd | 0/18
GFKLDEYGIS | VIYADGCRTAYVDSVK | GDTTFSKFV | nd nd nd nd nd nd | 1/18 (1.14)
GMSLGEYGIS | VIYADGERVNYTNNFK | GVMAGTFDV | nd nd 3.26 nd nd nd | 1/18 (2.43)
EFDLNEYGVS | VIYADGHRTFYADHVK | GQEAGFFFD | 0.66 0.65 1.99 1.50 0.94 0.39 | 1/18 (1.53)
GEDLDEYGIS | VIYADGLRTAYSDNFK | GNLGGQFDM | nd nd nd nd nd nd | 0/18
GHDINEYGIS | VIYADGKRSYYAQDVK | GQNIGQGTT | nd nd nd nd nd nd | 0/18
GGDLNEYGIS | VIYADGVRKNYIDSVK | GQTGIVLNI | nd nd nd nd nd nd | 0/18
GFDLDEYGVS | VIYADGRRKKYADSVK | GTQGGTILA | nd nd 1.62 nd nd nd | 0/18
GFDLDEYGIS | VIYADGMRTAYQQKVK | GQETDTNVV | nd nd nd nd nd nd | 1/18 (2.16)
GFQLDEYGIS | VIYADGKRTAYAQNFK | GNGLVLYEG | nd nd nd nd nd nd | 0/18
GFEIQDYGIS | VIYADGLRTAYSDKFK | GIIAGTFNS | -0.24 -0.50 -0.38 -0.43 -0.58 -0.36 | 0/18
GFDINEYGIS | VIYADGQRVAYTNSFK | GTQAGNNIN | nd nd nd nd nd nd | 0/18
GFDLGEYGIS | VIYADGSRKAYATDFK | GGSGYKDGV | nd nd 1.87 4.04 nd nd | 1/18 (2.48)
GFEIDEYGIS | VIYADGIRSSYNDNVK | GQLGTAFDL | nd nd nd nd nd nd | 1/18 (2.05)
GFNLDEFGIS | VIYADGNRTFYLDSVK | GTWVGTVDI | 1.25 0.19 0.36 0.55 0.96 0.47 | 0/18
GFPIDEYGIS | VIYADGRRTVYSDNVK | GNYGVSIAV | nd nd nd nd nd nd | 0/18
GKDIEEYGIS | VIYADGMRQAYADSVK | GQVVGSGKF | nd nd nd nd nd nd | 0/18
GDDLQEYGIS | VIYADGIRTAYGNKVK | GGQNGRITV | nd nd nd nd nd nd | 0/18
GENLEEYGIS | VIYADGFRTHYAEKVK | GQQAGFFIK | nd nd nd nd nd nd | 1/18 (2.36)
GFQLNEYGIS | VIYADGKRSEYADKVK | GGINSSFSV | nd nd nd nd nd nd | 0/18
GNTLNEYGIS | VIYADGIRKQYSDNVK | GMNTDTFDQ | nd nd nd nd nd nd | 0/18
GFDLNEYGIS | VIYADGCRVSYAQNVK | GLLGKLKVV | nd nd nd nd nd nd | 0/18
GFDLEKYGIS | VIYADGRRSVYADDVK | GMLGATNGV | 2.49 0.95 0.82 0.42 0.63 0.80 | 0/18
GFKLDEYGIS | VIYADGIRTVYADDVK | GLLKGHSLT | nd nd nd nd nd nd | 1/18 (2.39)
GFNLGEYGIS | VIYADGKRTAYSWSVK | GNSAGTFNH | -0.46 -1.07 -1.02 -0.92 -0.88 -0.94 | 0/18
GFDLDEEGIS | VIYADGQRTAYSQQVK | GNFDGKVMD | nd nd nd nd nd 1.78 | 0/18

Picked from the list: the 4 lowest averages where every replicate gave a value.

{"CDR-H1": "GFNLGEYGIS", "CDR-H2": "VIYADGKRTAYSWSVK", "CDR-H3": "GNSAGTFNH", "log10 Kd, replicates": "-0.46 -1.07 -1.02 -0.92 -0.88 -0.94", "control signals": "0/18"}
{"CDR-H1": "GFTIGEYGIS", "CDR-H2": "VIYADGERTAYSNAVK", "CDR-H3": "GNMAGTFLF", "log10 Kd, replicates": "-0.58 -0.40 -0.78 -0.11 -0.58 -0.27", "control signals": "0/18"}
{"CDR-H1": "GFEIQDYGIS", "CDR-H2": "VIYADGLRTAYSDKFK", "CDR-H3": "GIIAGTFNS", "log10 Kd, replicates": "-0.24 -0.50 -0.38 -0.43 -0.58 -0.36", "control signals": "0/18"}
{"CDR-H1": "GFNLDEFGIS", "CDR-H2": "VIYADGNRTFYLDSVK", "CDR-H3": "GTWVGTVDI", "log10 Kd, replicates": "1.25 0.19 0.36 0.55 0.96 0.47", "control signals": "0/18"}

The measurements come from Li et al. 2023 (doi:10.1038/s41467-023-39022-2) through the FLAb antibody collection.